These are literature values, as cited in article PMC9013686, “Inter-individual variation in chlorpyrifos toxicokinetics characterized by physiologically based kinetic (PBK) and Monte Carlo simulation comparing human liver microsome and Supersome™ cytochromes P450 (CYP)-specific kinetic data as model input” (Archives of Toxicology, 2022).

The test system of one series is RBC AChE. Further details: method as in Eyer et al. ([2009]). The following applies: corrected for unbound fraction in plasma of 0.15; ref Eyer et al. ([2009]); cited from earlier work.
The conditions of series [1]: ref Heilmair et al. ([2008]); cited from earlier work.

In general, IC50 refers to the midpoint of a concentration-inhibition curve. Regarding `CCOP(=O)(OCC)Oc1nc(Cl)c(Cl)cc1Cl` [CPO, chlorpyrifos-oxon], the IC50 with RBC AChE is 3.1 nM. For the same compound, the “unbound fraction in plasma (fuCPOin vivo(plasma))” value in series [1] was 0.15.
